Source: PMC7610391, “Photocatalytic proximity labelling of MCL-1 by a BH3 ligand” (Communications chemistry, 2019)

Amino acid sequences for entries named in this document (tags omitted). Residues count along the entry.
UniProt Q07820, 172-327: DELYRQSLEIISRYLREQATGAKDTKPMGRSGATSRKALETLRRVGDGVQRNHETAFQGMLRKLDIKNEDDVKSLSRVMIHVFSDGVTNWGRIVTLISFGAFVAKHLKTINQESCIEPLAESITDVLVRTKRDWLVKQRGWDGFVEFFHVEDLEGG

Target: MCL-1 (Homo sapiens, UniProt Q07820)
Experiment: biochemical

SMILES: CC[C@H](C)[C@H](NC(=O)[C@H](CCCNC(=N)N)NC(=O)[C@H](CCCNC(=N)N)NC(=O)[C@H](CC(C)C)NC(=O)[C@H](CCC(N)=O)NC(=O)[C@H](C)NC(=O)[C@H](C)NC(=O)CCCCCNC(=S)Nc1ccc2c(c1)C(=O)OC21c2ccc(O)cc2Oc2cc(O)ccc21)C(=O)NCC(=O)N[C@@H](CC(=O)O)C(=O)N[C@@H](CCCCN)C(=O)N[C@H](C(=O)N[C@@H](CC(N)=O)C(=O)N[C@@H](CC(C)C)C(=O)N[C@@H](CCCNC(=N)N)C(=O)N[C@@H](CCC(N)=O)C(=O)N[C@@H](CCCCN)C(=O)N[C@@H](CC(C)C)C(=O)N[C@@H](CC(C)C)C(=O)N[C@@H](CC(N)=O)C(N)=O)C(C)C [FITC-NOXA-B]
- Kd: 11 ± 3 nM
